Test results published in PubChem BioAssay AID1481 (The Scripps Research Institute Molecular Screening Center, 2009).
Where “and” joins values, the source holds several entries; their conditions need not be identical. Equal values may be shown once. This is a selection; strong and weak results do not stand in their true shares. Calls of active or inactive are those of the source. No stated cut-off is given here; in the data, active means inhibition above about 15%; inactive means the rest.

Amino acid sequences for entries named in this document (tags omitted).
UniProt P55072, whole entry, looked up: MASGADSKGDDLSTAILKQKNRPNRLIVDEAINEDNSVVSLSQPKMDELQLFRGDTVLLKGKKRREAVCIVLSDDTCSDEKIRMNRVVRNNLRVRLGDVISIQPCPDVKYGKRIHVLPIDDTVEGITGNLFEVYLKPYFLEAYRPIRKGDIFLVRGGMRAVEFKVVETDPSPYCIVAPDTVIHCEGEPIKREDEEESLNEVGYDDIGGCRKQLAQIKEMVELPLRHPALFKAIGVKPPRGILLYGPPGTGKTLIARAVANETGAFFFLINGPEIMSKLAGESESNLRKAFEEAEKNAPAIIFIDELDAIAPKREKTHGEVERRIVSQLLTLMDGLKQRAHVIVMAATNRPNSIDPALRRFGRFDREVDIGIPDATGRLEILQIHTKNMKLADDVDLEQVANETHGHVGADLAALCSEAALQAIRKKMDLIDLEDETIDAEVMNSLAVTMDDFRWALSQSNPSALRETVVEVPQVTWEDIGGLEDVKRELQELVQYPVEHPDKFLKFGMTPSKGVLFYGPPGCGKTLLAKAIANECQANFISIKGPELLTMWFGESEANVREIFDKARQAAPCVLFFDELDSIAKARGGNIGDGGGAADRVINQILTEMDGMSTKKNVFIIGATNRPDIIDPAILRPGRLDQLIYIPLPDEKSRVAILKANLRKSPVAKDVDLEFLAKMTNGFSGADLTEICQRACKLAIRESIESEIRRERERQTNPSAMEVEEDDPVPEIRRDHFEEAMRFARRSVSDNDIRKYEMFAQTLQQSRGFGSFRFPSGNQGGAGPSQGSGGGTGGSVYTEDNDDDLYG

target: Transitional endoplasmic reticulum ATPase (Homo sapiens) (UniProt P55072); assay: inhibitors of human p97 ATPase, primary screen, biochemical (AID 1481); settings: recombinant p97 ATPase, Kinase-Glo ATP luminescence, 3 h; at 8 µM; stronger effect = higher value;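 further: 0% = DMSO vehicle and 100% = wells lacking enzyme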

Compound	inhibition
CC(C)/C=N\N=C(\N)N[N+](=O)[O-]	inactive: 5.63%
CN(C(=O)Cc1ccc(Cl)c(Cl)c1)[C@@H]1CCCC[C@H]1N1CCCC1	inactive: 5.05%
O=[As](O)(c1ccccc1Br)c1ccccc1Br	inactive: 2.75%
CC1(CBr)Cn2c(nc3ccccc3c2=O)S1 (stereo not drawn)	inactive: -0.34%
O=P1(Nc2ccccn2)COc2ccccc2OC1	inactive: 2.5%
CCOP(=O)(Nc1ccc(C)cn1)OCC	inactive: 2.99%
Clc1n[nH]nc1-c1nn[nH][15n]1	inactive: -3.56%
CC(C)(C)C(=O)NC(Sc1ncccn1)C(Cl)(Cl)Cl (stereo not drawn)	inactive: 2.11%
O=P1(Nc2ncccn2)COc2ccccc2OC1	inactive: 1.53%
Nc1cccc([As](=O)(O)c2ccccc2)c1	inactive: -0.55%
O=P1(Nc2ccc(Br)cn2)COc2ccccc2OC1	inactive: 4.01%
Cc1ccc(OCC(=O)OC2CN3CCC2CC3)cc1 (stereo not drawn)	inactive: -2.71%
O=[As](O)(c1cccs1)c1cccs1	inactive: 4.62%
Cc1nn(-c2ccccc2)c2c1P(=O)(N1CCOCC1)N(C)C(c1ccccc1)=N2 (stereo not drawn)	inactive: -3.87%
CC1CCC(C(C)C)C(OP(=O)(Nc2ccccn2)c2ccccc2)C1 (stereo not drawn)	inactive: -5.84%
CN(C)C1(CNC(=O)c2ccc(S(C)(=O)=O)cc2)CCCCC1	inactive: 1.06%
O=C(/C=C/c1ccccc1)OC1CN2CCC1CC2 (stereo not drawn)	inactive: -6.68%
CCOP1(=S)c2c(C)nn(CCC#N)c2N=C(c2ccc(F)cc2)N1C (stereo not drawn)	inactive: 1.81%
O=[N+]([O-])c1ccc2c(c1)nnn2O	inactive: 4.59%
CCOP1(=S)c2c(C)nn(CCC#N)c2N=C(c2ccccc2F)N1C (stereo not drawn)	inactive: 0.91%
O=P(Nc1nccs1)(c1ccccc1)c1nc2ccccc2s1 (stereo not drawn)	inactive: 3.24%
O=P(Nc1nccs1)(Oc1ccccc1)Oc1ccccc1	inactive: 0.83%
CS(=O)(=O)c1cc([N+](=O)[O-])c2no[n+]([O-])c2c1	inactive: 7.08%
Nc1ccccc1[As](=O)(O)c1ccccc1	inactive: -0.71%
O=C(O)COc1ccc([As](=O)(O)O)cc1[N+](=O)[O-]	inactive: 8.13%
Cc1ccc(NCCc2c([N+](=O)[O-])cc([N+](=O)[O-])cc2[N+](=O)[O-])cc1	inactive: 2.71%

Compound	inhibition
Nc1cccc2c([As](=O)(O)O)cccc12	inactive: 6.37%
CCCOP(=S)(Nc1nc(N)cc(=O)[nH]1)OCCC	inactive: 8.07%
COc1cc(C2NCCC3(OCCO3)C2(C)C)cc(OC)c1OC (stereo not drawn)	inactive: -6.2%
CCOP(=O)(Nc1cccc2ccccc12)OCC	inactive: -6.56%
O=C(OC1CN2CCC1CC2)c1ccc(Cl)cc1 (stereo not drawn)	inactive: 10.2%
COc1cc(C(=O)NCC2(N3CCOCC3)CCCCC2)cc(Cl)c1OC(C)C	inactive: 0.36%
O=[As](O)(O)c1cccnc1	inactive: -4.9%
O=[As](O)(c1cccc(O)c1)c1cccc(O)c1	inactive: 0.38%
Cc1cccc(OCC(=O)OC2CN3CCC2CC3)c1 (stereo not drawn)	inactive: 3.08%
COc1ccc(N/C(=N/P(=O)(N2CCOCC2)N2CCOCC2)N2CCOCC2)cc1	inactive: 4.41%
Cc1c2c(nc3ccccc13)SC(C(Cl)Cl)C2 (stereo not drawn)	inactive: 6.29%
O=C(OC1CN2CCC1CC2)C12CC3CC(CC(C3)C1)C2 (stereo not drawn)	inactive: -6.23%
Cc1cc(=O)[nH]c(N[N+](=O)[O-])n1	inactive: 8.66%
COc1ccc2nc(NP(=O)(c3ccccc3)c3ccccc3)sc2c1	inactive: 3.13%
COc1cc(I)ccc1[As](=O)(O)O	inactive: 2.19%
ClCCSc1nnc(-c2cccnc2)o1	inactive: 0.78%
CC(C)c1ccc(OP(=O)(Nc2ccccn2)Oc2ccccc2F)cc1 (stereo not drawn)	inactive: -3.19%
CCN(CC)C(=S)SC(NC=O)C(Cl)(Cl)Cl (stereo not drawn)	inactive: 0.18%
CC(C)NC(=O)NP(=O)(Oc1ccccc1)Oc1ccccc1	inactive: 1.14%
O=[N+]([O-])c1cc([N+](=O)[O-])c(-c2ccn[nH]2)s1	inactive: 3.08%
C[As](=O)(O)c1cccc(C(=O)O)c1	inactive: 6.35%
O=[As](O)(c1ccc(O)cc1)c1ccccc1O	inactive: -1.84%
Cc1ccc(OP(=O)(Nc2ccc([N+](=O)[O-])cn2)Oc2ccc(C)cc2)cc1	inactive: -0.07%
Cc1ccc2nc3c(c(C)c2c1)CC(C(Cl)Cl)S3 (stereo not drawn)	inactive: -0.59%
CCOC(=O)Nc1cccc([As](=O)(O)O)c1	inactive: -2.99%
O=P(Nc1ccccn1)(c1cccc2ccccc12)c1cccc2ccccc12	inactive: 3.89%

Compound	inhibition
Cc1cc(SC(NC=O)C(Cl)(Cl)Cl)ncn1 (stereo not drawn)	inactive: -0.62%
O=[N+]([O-])c1ccc(Nc2ccc(Oc3ccc([N+](=O)[O-])cc3[N+](=O)[O-])cc2)c([N+](=O)[O-])c1	inactive: 8.95%
CCOC(=O)Nc1ccc([As](=O)(O)O)c(O)c1	inactive: 1.99%
Cc1cc(SC(NC(=O)c2ccccc2)C(Cl)(Cl)Cl)nc(C(C)C)n1 (stereo not drawn)	inactive: -4.96%
CCOC(=O)c1ccc(NC(=O)C(C)(CCl)SC)cc1 (stereo not drawn)	inactive: 7.11%
CCC(C)N(CC(C)C)C(=S)SC(NC(C)=O)C(Cl)(Cl)Cl (stereo not drawn)	inactive: -3.78%
COP1(=S)c2c(C)nn(CCC#N)c2N=C(c2ccc(F)cc2)N1C (stereo not drawn)	inactive: -1.21%
O=C(COc1ccccc1)OC1CN2CCC1CC2 (stereo not drawn)	inactive: 2.2%
CCN(/C(=N/P(=O)(N1CCOCC1)N1CCOCC1)N1CCOCC1)c1ccc(OC)cc1	inactive: -3.24%
Nc1ccc([As](=O)(O)c2ccc(N)cc2)cc1	inactive: 7.46%
C[N+]1=C2C=CC=CC=C2SC12C([N+](=O)[O-])=CC([N+](=O)[O-])=C[C-]2[N+](=O)[O-] (stereo not drawn)	active: 24.1%
CC1CCN(C(=O)Oc2c(Cl)cc(Cl)c3cccnc23)CC1	inactive: -12.5%
CC(C)=N/N=C(\N)N[N+](=O)[O-]	inactive: 7.05%
CN(C)C(=O)OCCc1n(C)cc[n+]1C	inactive: 3.03%
COc1ccc(C2=NCC(CBr)S2)cc1 (stereo not drawn)	inactive: 1.44%
Cc1ccc(NP(=O)(Oc2ccccc2)Oc2ccccc2)nc1	inactive: -4.33%
CCc1nc2c(n1)c1c(non1O)c1c2no[n+]1[O-]	active: 16.5%
O=[N+]([O-])c1cc([N+](=O)[O-])c(CCNc2ccccc2)c([N+](=O)[O-])c1	inactive: -0.07%
O=[N+]([O-])c1cccc2n[nH]nc12	inactive: -5.59%
CC(=O)N1C2C3N(C(C)=O)C1C1N(C(C)=O)C(C(N1C(C)=O)N3C(C)=O)N2C(C)=O	inactive: -3.9%
O=[N+]([O-])c1ncn(CCn2ncnc2[N+](=O)[O-])n1	inactive: 3.24%
CC(C)(C)C(=O)NC(Sc1ccncn1)C(Cl)(Cl)Cl (stereo not drawn)	inactive: 4.05%
O=C(O)CNc1ccc([As](=O)(O)O)cc1	inactive: 1.65%
O=[N+]([O-])c1cccc(NC2=NCC(CBr)S2)c1 (stereo not drawn)	inactive: -0.79%
O=C(Nc1cc([As](=O)(O)O)ccc1O)c1ccccc1	inactive: 9.07%
Nc1cccc2ccc([As](=O)(O)O)cc12	inactive: 6.39%

Compound	inhibition
CCN(N=Nc1nonc1N)c1nonc1N	inactive: 0.21%
O=P(Nc1nc2ccc(Cl)cc2s1)(c1ccccc1)c1ccccc1	inactive: 4.54%
O=C(O)c1ccccc1[As](=O)(O)O	inactive: 11.6%
CC(=O)Nc1ccc([As](=O)(O)O)cc1	inactive: 4.54%
CCOP(=O)(Nc1ccccc1)OCC	inactive: 4.65% and inactive: 4.57%
Cc1cc(SC(NC(=O)c2ccc(F)cc2)C(Cl)(Cl)Cl)ncn1 (stereo not drawn)	inactive: 4.91%
Cc1ccc(NP(=O)(Oc2ccccc2F)Oc2ccccc2F)nc1	inactive: -4.62%
Oc1ccccc1CNc1ccccn1	inactive: 2.59%
Cc1c2non([O-])c-2c(C)[n+](=O)[n+]1[O-]	inactive: -2.56%
O=C(NC(Sc1ccncn1)C(Cl)(Cl)Cl)c1ccccc1 (stereo not drawn)	inactive: -0.51%
CC(C)CC(=O)NC(Sc1ccc(Cl)cc1)C(Cl)(Cl)Cl (stereo not drawn)	inactive: -0.04%
Nc1cc(N)c2nonc2c1[N+](=O)[O-]	inactive: 1.35%
Cc1ccc(N/C(=N/P(=O)(N2CCOCC2)N2CCOCC2)N2CCOCC2)cc1	inactive: 3.21%
NC(=O)c1cc([N+](=O)[O-])cc([N+](=O)[O-])c1N	inactive: 2.11%
Clc1ccc(Cl)c(NC2=NCC(CBr)S2)c1 (stereo not drawn)	inactive: 1.32%
CN1CCCC(OC(=O)C(c2ccccc2)c2ccccc2)C1 (stereo not drawn)	inactive: 3.31%
COc1ccccc1OP(=O)(Nc1ccc(C)cn1)Oc1ccccc1OC	inactive: 2.47%
Cc1ccc(OP(=O)(Nc2nccs2)Oc2ccc(C)cc2)cc1	inactive: -4.14%
CC(=O)Nc1ccc([As](=O)(O)O)c(O)c1	inactive: 6.3%
CC(=O)Nc1ccc(Oc2c([N+](=O)[O-])cc([N+](=O)[O-])cc2[N+](=O)[O-])cc1	inactive: 0.3%
O=P1(Nc2nc3ccc(Cl)cc3s2)COc2ccccc2O1 (stereo not drawn)	inactive: -3.35%
CCOc1ccc(C2=NCC(CBr)S2)cc1 (stereo not drawn)	inactive: -5.96%
CC(C)(C)C(=O)NC(Sc1ccccc1)C(Cl)(Cl)Cl (stereo not drawn)	inactive: 3.35%
CCC(=O)N1C2C3N(C(=O)CC)C1C1N(C(=O)CC)C(C(N1C(=O)CC)N3C(=O)CC)N2C(=O)CC	inactive: 1.2%
COC(=O)c1cc2c(s1)N=C(c1ccccc1)N(C)P2(=O)N1CCOCC1 (stereo not drawn)	inactive: 3.61%
